Data: paper PMC2635097 (Molecular pharmacology, 2008)

Amino acid sequences for entries named in this document (tags omitted).
UniProt Q9UGI6, whole entry: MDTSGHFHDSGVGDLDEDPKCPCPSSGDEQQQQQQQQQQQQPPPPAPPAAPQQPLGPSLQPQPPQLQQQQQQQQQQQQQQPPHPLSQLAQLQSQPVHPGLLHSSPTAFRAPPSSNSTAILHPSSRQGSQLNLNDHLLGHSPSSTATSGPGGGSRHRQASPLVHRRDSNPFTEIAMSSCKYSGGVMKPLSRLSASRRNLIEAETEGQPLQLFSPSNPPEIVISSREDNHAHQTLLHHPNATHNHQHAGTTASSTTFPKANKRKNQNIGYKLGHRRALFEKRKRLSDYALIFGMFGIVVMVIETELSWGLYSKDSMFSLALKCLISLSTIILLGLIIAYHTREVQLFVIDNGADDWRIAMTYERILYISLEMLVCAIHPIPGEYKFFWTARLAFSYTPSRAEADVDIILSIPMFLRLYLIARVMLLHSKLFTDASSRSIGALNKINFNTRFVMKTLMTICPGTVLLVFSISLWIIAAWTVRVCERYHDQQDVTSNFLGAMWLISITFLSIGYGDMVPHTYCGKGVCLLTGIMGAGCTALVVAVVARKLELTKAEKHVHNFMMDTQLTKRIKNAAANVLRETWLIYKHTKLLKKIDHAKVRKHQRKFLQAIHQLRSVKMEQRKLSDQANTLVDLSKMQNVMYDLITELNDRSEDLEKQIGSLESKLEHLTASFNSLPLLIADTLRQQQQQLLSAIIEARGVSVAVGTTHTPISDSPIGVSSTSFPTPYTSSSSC

Biological target: hKCa2.3 (Homo sapiens, UniProt Q9UGI6)
Assay: Whole-cell patch-clamp of KCa2.3 currents
Format: cell-based
Conditions: read-out: EC50 KCa2.3 activation

## Nc1nc2c(ccc3ccccc32)s1 [SKA-31, naphtho[1,2-d]thiazol-2-ylamine]
  EC50: 2900 nM
